Converted amounts (≈) assume the structure as drawn.
How the values were obtained:
Mus musculus [1] = organism: Mus musculus; experiment: Increase in median survival time of L1210 (murine leukemia) injected mice.
Mus musculus [2] = organism: Mus musculus; experiment: In vitro test for cytotoxicity after 48 hr of continuous exposure against L1210 murine leukemia cells
Mus musculus [3] = experiment: Optimal dose in mice (sub LD10 mg/kg).

Structure (SMILES): Cn1cc(NC(=O)c2cc(NC(=O)c3cc(NC(=O)/C=C/c4ccc(N(CCCl)CCCl)cc4)cn3C)cn2C)cc1C(=O)NCCC(=N)NO
- T/C (Mus musculus [1]): 150%
- IC50 (Mus musculus [2]): 0.0424 µg/mL (≈ 0.0573 µM)

Structure (SMILES): Cn1cc(NC(=O)c2cc(NC(=O)c3cc(NC(=O)/C=C/c4ccc(N(CCCl)CCCl)cc4)cn3C)cn2C)cc1C(=O)NCCC(=N)NC#N
- T/C (Mus musculus [1]): 183%
- IC50 (Mus musculus [2]): 0.0054 µg/mL (≈ 0.00721 µM)

Structure (SMILES): Cn1cc(NC(=O)c2cc(NC(=O)c3cc(NC(=O)c4ccc(N(CCCl)CCCl)cc4)cn3C)cn2C)cc1C(=O)NCCC#N
- T/C (Mus musculus [1]): 133%
- IC50 (Mus musculus [2]): 0.094 µg/mL (≈ 0.138 µM)

Structure (SMILES): C/N=C(/CCNC(=O)c1cc(NC(=O)c2cc(NC(=O)c3cc(NC(=O)/C=C/c4ccc(N(CCCl)CCCl)cc4)cn3C)cn2C)cn1C)NC.Cl
- T/C (Mus musculus [1]): 100%
- IC50 (Mus musculus [2]): 0.0064 µg/mL

Structure (SMILES): CCN(CCCl)c1ccc(C(=O)Nc2cc(C(=O)Nc3cc(C(=O)Nc4cc(C(=O)NCCC(=N)NC)n(C)c4)n(C)c3)n(C)c2)cc1.Cl
- T/C (Mus musculus [1]): 129%
- IC50 (Mus musculus [2]): 0.0212 µg/mL

Structure (SMILES): Cn1cc(NC(=O)c2cc(NC(=O)c3cc(NC(=O)c4ccc(N(CCCl)CCCl)cc4)cn3C)cn2C)cc1C(=O)NCCCO
- IC50 (Mus musculus [2]): > 2 µg/mL

Structure (SMILES): Cn1cc(NC(=O)c2cc(NC(=O)c3cc(NC(=O)c4ccc(N(CCCl)CCCl)cc4)cn3C)cn2C)cc1C(=O)NCCC(N)=O
- IC50 (Mus musculus [2]): 0.13 µg/mL (≈ 0.186 µM)

Structure (SMILES): CN(C)CCCNC(=O)c1cc(NC(=O)c2cc(NC(=O)c3cc(NC(=O)c4ccc(N(CCCl)CCCl)cc4)cn3C)cn2C)cn1C.Cl
- T/C (Mus musculus [1]): 100%
- IC50 (Mus musculus [2]): 1 µg/mL

Structure (SMILES): Cl.Cn1cc(NC(=O)c2cc(NC(=O)c3cc(NC(=O)c4ccc(N(CCCl)CCCl)cc4)cn3C)cn2C)cc1C(=O)NCCC(=N)N
- OD (Mus musculus [3]): 3.13 mg/kg
- IC50 (Mus musculus [2]): 0.0503 µg/mL

Structure (SMILES): C/N=C(/CCNC(=O)c1cc(NC(=O)c2cc(NC(=O)c3cc(NC(=O)c4ccc(N(CCCl)CCCl)cc4)cn3C)cn2C)cn1C)NC.Cl
- T/C (Mus musculus [1]): 100%
- IC50 (Mus musculus [2]): 0.0365 µg/mL

Structure (SMILES): Cn1cc(NC(=O)c2cc(NC(=O)c3cc(NC(=O)c4ccc(N(CCCl)CCCl)cc4)cn3C)cn2C)cc1C(=O)NCCC(=N)NO
- T/C (Mus musculus [1]): 129%
- IC50 (Mus musculus [2]): 1.48 µg/mL (≈ 2.07 µM)

Structure (SMILES): Cl.Cn1cc(NC(=O)c2cc(NC(=O)c3cc(NC(=O)/C=C/c4ccc(N(CCCl)CCCl)cc4)cn3C)cn2C)cc1C(=O)NCCC(=N)N
- IC50 (Mus musculus [2]): 0.0072 µg/mL

Structure (SMILES): Cl.Cn1cc(NC(=O)c2cc(NC(=O)c3cc(NC(=O)c4ccc(N(CCCl)CCCl)cc4)cn3C)cn2C)cc1C(=O)NCCCC1=NCCN1
- IC50 (Mus musculus [2]): 0.143 µg/mL

Structure (SMILES): CCN(CCCl)c1ccc(C(=O)Nc2cc(C(=O)Nc3cc(C(=O)Nc4cc(C(=O)NCCC(=N)N)n(C)c4)n(C)c3)n(C)c2)cc1.Cl
- T/C (Mus musculus [1]): 133%
- IC50 (Mus musculus [2]): 0.042 µg/mL

Structure (SMILES): Cn1cc(NC(=O)c2cc(NC(=O)c3cc(NC(=O)c4ccc(N(CCCl)CCCl)cc4)cn3C)cn2C)cc1C(=O)NCCC(=N)NN
- T/C (Mus musculus [1]): 136%
- IC50 (Mus musculus [2]): 0.738 µg/mL (≈ 1.04 µM)

Structure (SMILES): CCN(CCCl)c1ccc(C(=O)Nc2cc(C(=O)Nc3cc(C(=O)Nc4cc(C(=O)NCCC(=N)NC#N)n(C)c4)n(C)c3)n(C)c2)cc1
- T/C (Mus musculus [1]): 267%
- IC50 (Mus musculus [2]): 0.363 µg/mL (≈ 0.527 µM)

Structure (SMILES): Cl.Cn1cc(NC(=O)c2cc(NC(=O)c3cc(NC(=O)/C=C/c4ccc(N(CCCl)CCCl)cc4)cn3C)cn2C)cc1C(=O)NCCN=C(N)N
- T/C (Mus musculus [1]): 200%
- IC50 (Mus musculus [2]): 0.0074 µg/mL

Structure (SMILES): CNC(=N)CCNC(=O)c1cc(NC(=O)c2cc(NC(=O)c3cc(NC(=O)c4ccc(N(CCCl)CCCl)cc4)cn3C)cn2C)cn1C.Cl
- T/C (Mus musculus [1]): 150%
- IC50 (Mus musculus [2]): 0.0385 µg/mL

Structure (SMILES): Cl.Cn1cc(NC(=O)c2cc(NC(=O)c3cc(NC(=O)c4ccc(N(CCCl)CCCl)cc4)cn3C)cn2C)cc1C(=O)NCCN=C(N)N
- T/C (Mus musculus [1]): 114%
- IC50 (Mus musculus [2]): 0.0644 µg/mL

Structure (SMILES): Cn1cc(NC(=O)c2cc(NC(=O)c3cc(NC(=O)c4ccc(N(CCCl)CCCl)cc4)cn3C)cn2C)cc1C(=O)NCCC(=N)NC#N
- T/C (Mus musculus [1]): 129%
- IC50 (Mus musculus [2]): 0.0379 µg/mL (≈ 0.0524 µM)

Structure (SMILES): CNC(=N)CCNC(=O)c1cc(NC(=O)c2cc(NC(=O)c3cc(NC(=O)/C=C/c4ccc(N(CCCl)CCCl)cc4)cn3C)cn2C)cn1C.Cl
- T/C (Mus musculus [1]): 192%
- IC50 (Mus musculus [2]): 0.0039 µg/mL

Structure (SMILES): CCN(CCCl)c1ccc(C(=O)Nc2cc(C(=O)Nc3cc(C(=O)Nc4cc(C(=O)NCCN=C(N)N)n(C)c4)n(C)c3)n(C)c2)cc1.Cl
- T/C (Mus musculus [1]): 158%
- IC50 (Mus musculus [2]): 0.0622 µg/mL

Structure (SMILES): Cn1cc(NC(=O)c2cc(NC(=O)c3cc(NC(=O)c4ccc(N(CCCl)CCCl)cc4)cn3C)cn2C)cc1C(=O)NCCC(=O)O
- T/C (Mus musculus [1]): 100%
- IC50 (Mus musculus [2]): 0.96 µg/mL (≈ 1.37 µM)

Structure (SMILES): Cl.Cn1cc(NC(=O)c2cc(NC(=O)c3cc(NC(=O)c4ccc(N(CCCl)CCCl)cc4)cn3C)cn2C)cc1C(=O)NCCCc1ncc[nH]1
- T/C (Mus musculus [1]): 117%
- IC50 (Mus musculus [2]): 0.069 µg/mL

— ChEMBL document CHEMBL1129802, “Novel phenyl nitrogen mustard and half-mustard derivatives of amidino-modified distamycin” (1997)
